Patent US4576625A, “Fertilizers containing urea with urease inhibitors” (Huls Aktiengesellschaft, priority 1983, dated 1986)

Test system: urease

SMILES	urease inhibitor effect (in words)
O=C1C2C3C=CC(C3)C2C(=O)N1SC(Cl)(Cl)C(Cl)Cl (centres unmarked)	No outstanding inhibitor effect
O=C1c2ccccc2C(=O)N1SC(Cl)(Cl)C(Cl)Cl	No outstanding inhibitor effect
